# Measured values reported in ChEMBL document CHEMBL5512651, “Synthesis and biological evaluation of 4-imidazolidinone-containing compounds as potent inhibitors of the MDM2/p53 interaction” (Eur J Med Chem, 2024).
# Amino acid sequences for entries named in this document (tags omitted).
# UniProt P04637, whole entry, looked up: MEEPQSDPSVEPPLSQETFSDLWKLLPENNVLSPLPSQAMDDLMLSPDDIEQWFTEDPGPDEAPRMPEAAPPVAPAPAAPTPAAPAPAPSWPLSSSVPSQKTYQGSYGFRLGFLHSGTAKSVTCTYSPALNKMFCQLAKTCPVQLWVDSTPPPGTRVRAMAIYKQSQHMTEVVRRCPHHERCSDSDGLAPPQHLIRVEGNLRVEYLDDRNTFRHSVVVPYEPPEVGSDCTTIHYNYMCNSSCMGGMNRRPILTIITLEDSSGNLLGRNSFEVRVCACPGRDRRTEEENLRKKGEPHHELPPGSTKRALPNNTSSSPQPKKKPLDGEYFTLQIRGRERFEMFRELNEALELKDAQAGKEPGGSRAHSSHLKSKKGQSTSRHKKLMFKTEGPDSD
# Calls of active or inactive are those of the source. The rule behind the calls is not given here.
# How the values were obtained:
# MSTO-211H = assay: cells; conditions: Homo sapiens, 96 h
# [1] = molecular target: Cellular tumor antigen p53 (Homo sapiens) (UniProt P04637); assay type: cell-based; conditions: MSTO-211H, filed as activator, dose 1.0 µM, time 24.0 hrs
# [2] = molecular target: Cellular tumor antigen p53 (Homo sapiens) (UniProt P04637); assay type: cell-based; conditions: MSTO-211H, filed as activator, dose 1.0 µM, time 24.0 hrs; remark: listed apart in the source
# [3] = molecular target: Cellular tumor antigen p53 (Homo sapiens) (UniProt P04637); assay type: cell-based; conditions: MSTO-211H, filed as activator, dose 1.0 µM, time 24.0 hrs; remark: listed apart in the source
SMILES,IC50 (MSTO-211H) [nM],Activity [1],Activity [2],Activity [3]
COc1ccc(C2=N[C@@H](c3ccc(Cl)cc3)[C@@H](c3ccc(Cl)cc3)N2C(=O)N2CCNC(=O)C2)c(OC(C)C)c1 [NUTLIN-3],1030,–,–,–
COc1cc(C(=O)O)ccc1N1CN2[C@@H](CC(C)(C)C)[C@@]3(CNc4cc(Cl)ccc43)[C@@H](c3cccc(Cl)c3)[C@@H]2C1=O,73.4,Active,Active,Active
CCC(C)(C)C[C@@H]1N2CN(c3ccc(C(=O)O)cc3OC)C(=O)[C@H]2[C@H](c2cccc(Cl)c2)[C@]12CNc1cc(Cl)ccc12,68.4,–,–,–
COc1cc(NC(=O)[C@@H]2N[C@@H](CC(C)(C)C)[C@](C#N)(c3ccc(Cl)cc3F)[C@H]2c2cccc(Cl)c2F)ccc1C(=O)O,44.7,–,–,–
